Results reported in US20180193330A1, “ALKYLATED TETRAHYDROISOQUINOLINES FOR BINDING TO CENTRAL NERVOUS SYSTEM RECEPTORS” (Florida A&M University, priority 2017, published 2018).

Protein sequences, listed by entry. Tags and fused reporters are not part of them. Residues count along the entry.
UniProt P14416, whole entry: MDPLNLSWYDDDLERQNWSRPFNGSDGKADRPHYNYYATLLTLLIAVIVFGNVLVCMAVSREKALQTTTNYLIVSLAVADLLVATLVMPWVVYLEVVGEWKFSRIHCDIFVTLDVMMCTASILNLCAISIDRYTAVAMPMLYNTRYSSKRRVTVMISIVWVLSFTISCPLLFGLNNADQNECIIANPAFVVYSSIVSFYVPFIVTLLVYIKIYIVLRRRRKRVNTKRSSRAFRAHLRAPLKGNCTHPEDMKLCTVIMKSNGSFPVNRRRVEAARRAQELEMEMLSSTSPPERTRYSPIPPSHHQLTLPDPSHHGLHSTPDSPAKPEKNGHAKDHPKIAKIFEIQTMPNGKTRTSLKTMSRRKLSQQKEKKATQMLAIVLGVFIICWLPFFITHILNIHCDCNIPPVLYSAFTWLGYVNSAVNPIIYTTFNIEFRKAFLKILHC
UniProt P28223, whole entry: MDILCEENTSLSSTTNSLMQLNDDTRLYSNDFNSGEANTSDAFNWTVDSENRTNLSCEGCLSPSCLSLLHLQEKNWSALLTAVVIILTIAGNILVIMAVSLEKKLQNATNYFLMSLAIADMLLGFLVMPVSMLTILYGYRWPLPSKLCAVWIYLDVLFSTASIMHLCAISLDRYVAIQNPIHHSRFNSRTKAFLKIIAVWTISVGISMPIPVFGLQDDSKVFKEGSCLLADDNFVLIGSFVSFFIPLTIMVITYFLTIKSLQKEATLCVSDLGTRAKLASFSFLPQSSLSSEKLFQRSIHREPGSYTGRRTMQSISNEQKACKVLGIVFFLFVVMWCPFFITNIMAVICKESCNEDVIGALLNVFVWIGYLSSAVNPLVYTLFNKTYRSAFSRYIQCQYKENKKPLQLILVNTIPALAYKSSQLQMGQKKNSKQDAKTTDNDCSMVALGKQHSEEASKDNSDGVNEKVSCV
UniProt P28335, 33-458: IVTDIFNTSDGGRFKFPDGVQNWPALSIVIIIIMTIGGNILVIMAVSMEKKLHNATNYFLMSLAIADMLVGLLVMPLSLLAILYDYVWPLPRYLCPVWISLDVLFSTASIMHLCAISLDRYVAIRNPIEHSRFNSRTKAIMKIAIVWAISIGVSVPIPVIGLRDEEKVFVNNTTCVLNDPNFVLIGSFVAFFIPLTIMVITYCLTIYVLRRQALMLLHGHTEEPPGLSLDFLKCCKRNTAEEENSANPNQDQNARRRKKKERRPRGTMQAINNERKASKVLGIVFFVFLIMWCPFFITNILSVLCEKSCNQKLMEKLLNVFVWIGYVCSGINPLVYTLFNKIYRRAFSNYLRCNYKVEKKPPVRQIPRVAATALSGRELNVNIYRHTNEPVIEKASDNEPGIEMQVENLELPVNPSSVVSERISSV
UniProt P08908, whole entry: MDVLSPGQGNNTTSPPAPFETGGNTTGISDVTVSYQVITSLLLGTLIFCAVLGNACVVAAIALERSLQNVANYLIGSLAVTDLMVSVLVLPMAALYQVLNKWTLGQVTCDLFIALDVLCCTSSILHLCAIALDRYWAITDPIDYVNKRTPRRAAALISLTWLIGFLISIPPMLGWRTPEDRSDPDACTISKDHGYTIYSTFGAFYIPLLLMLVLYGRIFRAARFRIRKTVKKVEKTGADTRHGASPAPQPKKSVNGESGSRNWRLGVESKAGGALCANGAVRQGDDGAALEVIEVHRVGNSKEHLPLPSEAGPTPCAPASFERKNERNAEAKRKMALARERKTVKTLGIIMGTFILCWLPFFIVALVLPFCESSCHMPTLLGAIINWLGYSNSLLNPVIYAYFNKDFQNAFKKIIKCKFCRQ

How the values were obtained:
D2 receptor = D2 receptor (Homo sapiens, UniProt P14416); experiment: Receptor binding affinity at dopamine D2 (NIMH-PDSP radioligand binding)
5-HT2A receptor = 5-HT2A receptor (Homo sapiens, UniProt P28223); experiment: Receptor binding affinity at 5-HT2A (NIMH-PDSP radioligand binding); settings: Table 5, Group 3 analogs; Ki without SEM within 20% of mean
5-HT2C receptor = 5-HT2C receptor (Homo sapiens, UniProt P28335); experiment: Receptor binding affinity at 5-HT2C (NIMH-PDSP radioligand binding); settings: Table 5, Group 3 analogs; Ki without SEM within 20% of mean
5-HT1A receptor = 5-HT1A receptor (Homo sapiens, UniProt P08908); experiment: Receptor binding affinity at 5-HT1A (NIMH-PDSP radioligand binding)

For `C1=C(CCN2CCc3ccccc3C2)CCc2ccccc21` [Compound 2b, 2-(2-(3,4-dihydronaphthalen-2-yl)ethyl)-1,2,3,4-tetrahydroisoquinoline], the “pKi ± SEM D2” value (D2 receptor; Table 4, Group 2 analogs) was “(5.25 ± 0.06)”.
Compound `O=C1c2ccc(F)cc2CC1CCN1CCc2ccccc2C1` (stereo not drawn) [Compound 3h, 2-(2-(3,4-dihydroisoquinolin-2(1H)-yl)ethyl)-5-fluoro-2,3-dihydro-1H-inden-1-one] has a Ki (5-HT2A receptor) of 1200 nM.
In the case of `Cl.O=C(CCCN1CCc2ccccc2CC1)c1ccc(Cl)cc1` [Compound 3f, 1-(4-Chlorophenyl)-4-(4,5-dihydro-1H-benzo[d]azepin-3(2H)-yl)butan-1-one hydrochloride], the Ki (D2 receptor; Table 5, Group 3 analogs, Ki without SEM within 20% of mean) is reported as 1170 nM.
In the case of `O=C1Cc2cc(C(=O)CCCN3CCc4ccccc4C3)ccc2N1` [Compound 3g, 5-(4-(3,4-dihydroisoquinolin-2(1H)-yl)butanoyl)indolin-2-one], the Ki (5-HT2C receptor) is reported as 4230 nM.
Compound `Cl.O=C(CCCN1CCCc2ccccc2C1)c1ccc(Cl)cc1` [Compound 3e, 1-(4-Chlorophenyl)-4-(4,5-dihydro-1H-benzo[c]azepin-2(3H)-yl)butan-1-one hydrochloride] has a Ki (5-HT1A receptor; read-out: Ki 5-HT1A, Table 5, Group 3 analogs, Ki without SEM within 20% of mean) of 1710 nM.
In the case of `C1=C(CCN2CCc3ccccc3C2)Cc2ccccc21` [Compound 2a, 2-(2-(1H-inden-2-yl)ethyl)-1,2,3,4-tetrahydroisoquinoline], the “pKi ± SEM 5-HT1A” value (5-HT1A receptor; Table 4, Group 2 analogs) is reported as “(5.96 ± 0.08)”.
